Measured values reported in PMC5717258, “Bioaccumulation of pharmaceuticals and personal care product chemicals in fish exposed to wastewater effluent in an urban wetland” (Scientific Reports, 2017).
Read-outs that look alike come from different tables or passages of the source. One block for each compound: values may come before it.

How the values were obtained:
[1] = human; ref Schulz et al.[56]; cited from earlier work
[2] = not given; remark: listed apart in the source
[3] = Brown Bullhead (Ameiurus nebulosus), in vivo
in vivo = conditions: goldfish (Carassius auratus), plasma concentration
[4] = Cootes carp 13, Sep 28, 2011, female, wet weight
[5] = Cootes carp 36, Oct 3, 2011, female, wet weight
[6] = carp (Cyprinus carpio), in vivo
[7] = female, carp (Cyprinus carpio), in vivo
[8] = male, carp (Cyprinus carpio), in vivo
[9] = male, goldfish (Carassius auratus), in vivo

Compound: CN(C)CCCC1(c2ccc(F)cc2)OCc2cc(C#N)ccc21 (centres unmarked) [Citalopram]
- toxic dose (toxic blood-plasma/serum concentration) [1]: 220 ng/mL

Compound: Cn1c(=O)c2c(ncn2C)n(C)c1=O [Caffeine]
- Goldfish plasma concentration, this study (range) (Table S7): 1.47 to 1.57 ng/g
- plasma concentration, CPM wild-01 (wild goldfish sample 01, 2012, wet weight): 1.47 ng/g
- plasma concentration, CPM-C 01 ([2]; Cootes carp 01, 2011, male, wet weight): 1.58 ng/g
- plasma concentration, CPM-C 2 ([2]; Cootes carp 2, Sep 27, 2011, male, wet weight): 5.05 ng/g
- plasma concentration, CPM-C 10 ([2]; Cootes carp 10, Sep 28, 2011, female, wet weight): 2.27 ng/g
- plasma concentration, CPM-C 13 [2, 4]: 2.34 ng/g
- plasma concentration, CPM-C 20 ([2]; Cootes carp 20, 2011, male, wet weight): 1.62 ng/g
- plasma concentration, CPM-C 36 [2, 5]: 2.15 ng/g
- Carp plasma concentration, this study (range) ([2]; Table S7): 1.58 to 5.05 ng/g

Compound: CN1[C@@H]2CC[C@H]1C[C@@H](OC(c1ccccc1)c1ccccc1)C2 [Benztropine]
- plasma concentration, goldfish, this study (mean) (in vivo): < mdl
- Carp plasma concentration, this study (range) [2, 6]: 0.05 to 0.41 ng/g
- Cootes carp plasma, range of concentrations [2, 6]: 0.05 to 0.41 ng/g
- plasma concentration, carp, this study (mean) [2, 6]: 0.27 ng/g wet weight or ng/mL for plasma
- plasma concentration, CPM-C 10 [2, 7]: 0.373 ng/g
- plasma concentration, CPM-C 13 [2, 7]: 0.407 ng/g
- plasma concentration, CPM-C 36 [2, 7]: 0.371 ng/g
- plasma concentration, JH-C 73 [2, 7]: 0.052 ng/g
- plasma concentration, JH-C 75 [2, 7]: 0.375 ng/g
- plasma concentration, JH-C 82 [2, 7]: 0.050 ng/g
- plasma concentration, CPM-C 01 [2, 8]: 0.053 ng/g
- plasma concentration, CPM-C 2 [2, 8]: 0.358 ng/g
- plasma concentration, CPM-C 20 [2, 8]: 0.054 ng/g
- plasma concentration, JH-C 54 [2, 8]: 0.053 ng/g
- plasma concentration, JH-C 74 [2, 8]: 0.053 ng/g
- plasma concentration, JH-C 78 [2, 8]: 0.052 ng/g
- plasma concentration, JH-BB [3]: 0.436 ng/g

Compound: CNCCC(Oc1ccc(C(F)(F)F)cc1)c1ccccc1 (centres unmarked) [Fluoxetine]
- Goldfish plasma concentration, this study (range) [9]: 0.15 to 0.4 ng/g
- plasma concentration, CPM wild-01 [9]: 0.147 ng/g
- plasma concentration, CPM wild-02 [9]: 0.153 ng/g
- plasma concentration, CPM wild-03 [9]: 0.4 ng/g
- concentration at 21 days (in vivo; CPM1 caged): 0.302 ng/g
- concentration at 21 days (in vivo; CPM2 caged): 0.146 ng/g
- concentration at 21 days (in vivo; CPM3 caged): 0.154 ng/g
- concentration at 21 days (in vivo; JH caged): < 0.3 ng/g

- plasma concentration, CPM-C 13 [2, 4]: < 4.67 ng/g
- plasma concentration, CPM-C 36 [2, 5]: 4.67 ng/g
- Carp plasma concentration, this study (range) ([2]; Table S7): 4.67 -4.67 ng/g
Compound: CC(C)Cc1ccc(C(C)C(=O)O)cc1 (centres unmarked) [Ibuprofen]
